Measured values as given in patent US9889093B2, “Application of andrographolide in the preparation of a pharmaceutical for treatment of inflammatory bowel disease, andrographolide enteric targeting micropellet, and method for preparation thereof” (TASLY PHARMACEUTICAL GROUP CO., LTD., priority 2013, dated 2018).
Values joined by “and” are separate entries in the source; they are usually repeats but may differ in a detail not shown here. Identical values can stand only once.

Key:
[1] = tested on: zebra fish Crohn's disease model; assay: Zebra fish Crohn's disease model (TNBS), efficacy; format: in vivo; conditions: prednisolone 10 μM
[2] = tested on: zebra fish Crohn's disease model; assay: Zebra fish Crohn's disease model (TNBS), efficacy; format: in vivo; conditions: prednisolone 10 μM in fish farm water, 48 hours
Procedure: Crohn's disease model (mainly inflammation) was built by using TNBS (2,4,6-trinitrobenzenesulfonic acid), and 30 zebra fishes were randomly divided into each treating group. […] Image analysis software was used to analyze the pictures. Moreover, the intestinal mucosal thickness, intestinal lumen diameter and intestinal lumen area were observed carefully under a microscope and the intestinal lumen diameter and intestinal lumen area were analyzed quantitatively. Therapeutical efficacy of the tested drug in zebra fish Crohn's disease was calculated in accordance with the intestinal lumen area in each group. The calculation formula was presented as follows: Therapeutical efficacy (%)=[1−(the administration group−the blank control group)/(the model group−the blank control group)]×100%
Statistically analyzed results were expressed as mean±SE. Variance analysis was used for comparison among many groups, and Dunnett's T test for comparison between two groups.

## C[C@]12C=CC(=O)C=C1CC[C@@H]1[C@@H]2[C@@H](O)C[C@@]2(C)[C@H]1CC[C@]2(O)C(=O)CO [prednisolone, reference compound]
[1]; based on neutrophil infiltration
  Inflammation regression ratio: 72±4.14% and 72 ± 4.1 %
[1]; neutrophil number
  Ratio with the blank control group: 1.53 ± 0.07
[2]
  Intestinal lumen area reduced by (therapeutical efficacy): 76±9.3%
